Values of other authors, collected in patent US7622630B2, “Chimeric cancer models” (AVEO Pharmaceuticals, Inc., priority 2003, dated 2009).

Test system: HER2-positive non-small cell lung cancer
Details: human patients; literature report (Gatzemeier et al., Annals of Oncology 15:19-27 (2004))

Substance: trastuzumab
- efficacy in treating HER2-positive non-small cell lung cancer: do not seem efficacious
